Reference: US5643927A, “4-p-fluorobenzoyl-1-piperidinyl-propoxy-chromen-4-one derivatives, their preparation and their use in the treatment of psychosis and schizophrenia” (Ferrer Internacional, S.A., priority 1994, dated 1997)

Sequences of proteins named here, by UniProt entry; tags and fusion partners are left off.
UniProt Q60492, whole entry: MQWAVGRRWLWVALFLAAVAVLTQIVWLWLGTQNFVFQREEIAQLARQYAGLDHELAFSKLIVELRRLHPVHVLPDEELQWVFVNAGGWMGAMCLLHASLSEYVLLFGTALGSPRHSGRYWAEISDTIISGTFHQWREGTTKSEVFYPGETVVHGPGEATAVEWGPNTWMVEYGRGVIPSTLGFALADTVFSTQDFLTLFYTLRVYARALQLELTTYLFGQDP

Molecular target: σ receptors (Cavia porcellus, UniProt Q60492)
Test: biochemical
Type: binding
Conditions: [3H]3-PPP 2 nM, guinea-pig total brain membrane, 90 min, 25° C., pH 8.5

IC50: 0.049 µM
SMILES: OC(CCCN1CCN(c2ncc(F)cn2)CC1)c1ccc(F)cc1 (stereo not shown) [reference compound]
